pEC50, pIC50: −log10 of the molar value. Where two headings read alike, the source gives them in different places.
How the values were obtained:
neutrophil elastase [1] = biological target: T1, neutrophil elastase (Homo sapiens (Human), UniProt P08246); experiment: biochemical
neutrophil elastase [2] = biological target: T1, neutrophil elastase; experiment: biochemical; remark: listed apart in the source

Chains of the proteins cited; added tags and fusions are not shown. Lines headed by an entry give the natural chain unless they say otherwise; changes in a name come on top.
UniProt P08246: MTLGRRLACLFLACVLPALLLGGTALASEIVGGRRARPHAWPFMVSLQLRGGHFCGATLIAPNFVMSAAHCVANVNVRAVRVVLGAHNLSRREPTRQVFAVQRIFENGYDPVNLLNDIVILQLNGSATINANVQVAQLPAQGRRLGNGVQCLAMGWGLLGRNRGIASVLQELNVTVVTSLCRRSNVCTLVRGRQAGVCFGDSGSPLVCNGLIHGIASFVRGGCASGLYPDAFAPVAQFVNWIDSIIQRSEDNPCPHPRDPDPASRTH

Compound | pEC50 (neutrophil elastase [1]) | pIC50 (neutrophil elastase [2]; Neutrophil Elastase assay, substrate MeOSuc-Ala-Ala-Pro-Val-AMC, read-out: IC50) | pIC50 (neutrophil elastase [2]; IC50, Neutrophil Elastase assay, substrate MeOSuc-Ala-Ala-Pro-Val-AMC) | pIC50 (neutrophil elastase [2]; read-out: IC50)
CC[S+]([O-])c1cc(C#N)ccc1C1C2=C(CCC2=O)N(c2cccc(C(F)(F)F)c2)C(=O)N1C (single isomer, unassigned) [Example C.5.1, 3-Ethanesulfinyl-4-[3-methyl-2,5-dioxo-1-(3-trifluoromethyl-phenyl)-2,3,4,5,6,7-hexahydro-1H-cyclopentapyrimidin-4-yl]-benzonitrile] | 8.70 |  |  | 
CN1C(=O)N(c2ccnc(C(F)(F)F)c2)C2=C(C(=O)CC2)C1c1ccc(C#N)cc1S(C)(=O)=O (stereo not shown) [Example D.1B, 3-Methanesulfonyl-4-[3-methyl-2,5-dioxo-1-(2-trifluoromethyl-pyridin-4-yl)-2,3,4,5,6,7-hexahydro-1H-cyclopentapyrimidin-4-yl]-benzonitrile] |  | 7.72 |  | 
CC[S+]([O-])c1cc(C#N)ccc1C1C2=C(CCC2=O)N(c2cccc(C(F)(F)F)c2)C(=O)N1C (single isomer, unassigned) [Example C.5.2, 3-Ethanesulfinyl-4-[3-methyl-2,5-dioxo-1-(3-trifluoromethyl-phenyl)-2,3,4,5,6,7-hexahydro-1H-cyclopentapyrimidin-4-yl]-benzonitrile] | 9.00 |  |  | 
CN1C(=O)N(c2ccnc(C(F)(F)F)c2)C2=C(C(=O)CC2)C1c1ccc(C#N)cc1S(C)(=O)=O (single isomer, unassigned) [Example D.1A, 3-Methanesulfonyl-4-[3-methyl-2,5-dioxo-1-(2-trifluoromethyl-pyridin-4-yl)-2,3,4,5,6,7-hexahydro-1H-cyclopentapyrimidin-4-yl]-benzonitrile] | 9.00 |  | 8.59 | 
CC(O)c1cc(C#N)ccc1C1C2=C(CCC2=O)N(c2cccc(C(F)(F)F)c2)C(=O)N1C (stereo not shown) [Example A.3, 3-(1-Hydroxy-ethyl)-4-[3-methyl-2,5-dioxo-1-(3-trifluoromethyl-phenyl)-2,3,4,5,6,7-hexahydro-1H-cyclopentapyrimidin-4-yl]-benzonitrile] | 9.00 |  |  | > 9.00
